The record followed here is patent publication US20190010232A1 (Eli Lilly, published 2019).

Sequences of proteins named here, by UniProt entry; tags and fusion partners are left off. Residues count along the entry.
UniProt Q15116, 25-288 limits assumed: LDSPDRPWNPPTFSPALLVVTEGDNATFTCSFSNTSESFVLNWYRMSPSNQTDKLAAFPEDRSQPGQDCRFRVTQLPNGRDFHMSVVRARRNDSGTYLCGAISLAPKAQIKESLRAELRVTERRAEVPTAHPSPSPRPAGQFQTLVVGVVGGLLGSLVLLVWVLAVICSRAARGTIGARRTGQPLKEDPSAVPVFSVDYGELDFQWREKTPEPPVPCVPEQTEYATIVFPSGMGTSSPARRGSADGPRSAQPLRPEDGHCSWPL
UniProt Q15116, 25-167 limits assumed: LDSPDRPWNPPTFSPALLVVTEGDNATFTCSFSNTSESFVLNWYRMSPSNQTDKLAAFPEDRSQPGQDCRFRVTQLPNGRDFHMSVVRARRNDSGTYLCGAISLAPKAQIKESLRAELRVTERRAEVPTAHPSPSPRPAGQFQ
UniProt Q9NZQ7, 19-290 limits assumed: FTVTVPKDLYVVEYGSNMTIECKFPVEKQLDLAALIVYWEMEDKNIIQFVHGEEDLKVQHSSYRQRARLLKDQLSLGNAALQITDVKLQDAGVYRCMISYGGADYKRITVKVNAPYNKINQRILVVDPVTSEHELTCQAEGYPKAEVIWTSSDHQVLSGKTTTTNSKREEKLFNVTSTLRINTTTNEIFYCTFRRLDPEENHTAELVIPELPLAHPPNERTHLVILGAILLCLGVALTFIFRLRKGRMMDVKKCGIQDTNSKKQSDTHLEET
UniProt Q9NZQ7, 19-239 limits assumed: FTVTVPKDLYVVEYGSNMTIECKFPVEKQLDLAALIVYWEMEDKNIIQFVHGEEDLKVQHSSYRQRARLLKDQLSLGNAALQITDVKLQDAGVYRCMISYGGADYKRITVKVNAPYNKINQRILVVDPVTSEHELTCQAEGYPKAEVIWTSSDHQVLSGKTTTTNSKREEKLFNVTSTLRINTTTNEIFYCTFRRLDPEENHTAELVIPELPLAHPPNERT

The target in test [1] is PD-1 expressed on cells (UniProt Q15116 25-288, limits assumed). The test is described as follows: cell-based or functional assay.
Test [2] concerns the target PD-L1 expressed on cells (UniProt Q9NZQ7 19-290, limits assumed). Kind of test: cell-based or functional assay.
Test [3] concerns the target T1, human PD-L1-Fc (R&D Systems, cat#156-B7) (human, UniProt Q9NZQ7 19-239).
T1 construct: Bought reagent; also called PD-L1 ligand; not shown: Fc part of the bought fusion protein
The test is described as follows: blocking ELISA, plate coated with B7-1-Fc; inhibition of PD-L1 binding to B7-1. The source says: Similarly, a PD-L1/B7-1 blocking assay may be performed by using plates coated with 1 pg/ml B7-1-Fc (R&D Systems, cat#140-B1-100).

Test [4] deals with T2, human PD-1-Fc (R&D Systems, cat. #1086-PD) (human, UniProt Q15116 25-167, biotinylated in the blocking assay of Example 4 (sites not given)).
T2 construct: Bought reagent; it is treated here as the same molecule, biotinylated; also called biotinylated PD-1-Fc fusion protein; PD-1 receptor; not shown: Fc part of the bought fusion protein
Kind of test: ELISA, plate coated with human PD-1-Fc, detection with anti-human IgG F(ab')2-HRP. Background: ELISA stands for enzyme-linked immunosorbent assay.

Test [5] concerns the target T1, human PD-L1-Fc (R&D Systems, cat#156-B7). Kind of test: ELISA, plate coated with human PD-L1-Fc, detection with anti-human IgG F(ab')2-HRP.
In test [6] the target is T2, human PD-1-Fc (R&D Systems, cat. …). Kind of test: blocking ELISA, biotinylated PD-1-Fc mixed with antibody, plate coated with PD-L2-Fc, streptavidin-HRP.

B1: Antibody v3.2 (bispecific antibody, human IgG1, kappa, lambda, L234A L235A)
heavy 1: not shown
light 1: not shown
heavy 2: not shown
light 2: DIQMTQSPSSVSASVGDRVTITCRASQGISSWLAWYQQKPGKAPKLLISAASSLQSGVPSRFSGSGSGTDFTLTISSLQPEDFATYYCQQANHLPFTFGGGTKVEIKRTVAAPSVFIFPPSDEQLKSGTARVGCLLNNFYPREAKVQWKVDNALQSGNSQESVTEQDSKDSTYSLRSTLTLSKADYEKHKVYACEVTHQGLSSPVTKSFNRGEC
The term IC50 denotes the concentration at which inhibition is half-maximal. Higher therefore signals a need for much substance. Broadly, the EC50 is the concentration needed to bring the measured effect to its halfway point. A low value points to higher potency in that assay. Take B1: the “EC50, PD-1/NFAT Reporter Jurkat T cell assay with PD-L1/PD-L2 double positive T cell activator CHO cells” value in test [1] stood at 0.181 nM. The “EC50, PD-1/NFAT Reporter Jurkat T cell assay with PD-L1 positive T cell activator CHO cells” value in test [1] and in test [2] was 0.12 nM each time. Moreover, the “double positive events (CFSE+/CTDR+) by flow cytometry, cell bridging” value in test [1] and in test [2] was ≤ 4 fold in each case. Besides, the values for the concentration for half-maximal inhibition (IC50) in test [3] and in test [6] were 0.75 nM and 2.27 nM, respectively. Moreover, the values for the EC50 in test [4] and in test [5] were 0.0802 nM and 0.455 nM, respectively.
